Experimental data taken from ChEMBL document CHEMBL1123748, “Opioid agonist and antagonist activities of monofunctional nitrogen mustard analogues of beta-chlornaltrexamine” (1987).

Assays:
[1] = organism: Cavia porcellus; assay: Opioid agonist activity was determined as potency ratio relative to morphine in Guinea pig ileum (GPI); Transient agonism at 20 nm; conditions: filed as agonist
[2] = organism: Mus musculus; assay: Partial Opioid agonist activity was determined in Mouse vas deferens (MVD); Transient agonism at 200 nm; conditions: filed as agonist

## Oc1ccc2c3c1O[C@H]1[C@H](N(CCCl)CCCl)CC[C@@]4(O)C(C2)N(CC2CC2)CCC314 (some centres not stated)
[1]
  Potency ratio: Transient agonism at 20 nM
[2]
  IC20: Transient agonism at 200 nM
